Legend:
PTPα = PTPα (Homo sapiens, UniProt P18433); conditions: read-out: PTPα IC50
PTPβ = PTPβ (Homo sapiens, UniProt P23467); conditions: read-out: PTPβ IC50
LAR = LAR (Homo sapiens, UniProt P10586); conditions: read-out: LAR IC50
CD45 = CD45 (Homo sapiens, UniProt P08575); conditions: read-out: CD45 IC50

Sequences of proteins named here, by UniProt entry; tags and fusion partners are left off. Residues count along the entry.
UniProt P18433, 175-802: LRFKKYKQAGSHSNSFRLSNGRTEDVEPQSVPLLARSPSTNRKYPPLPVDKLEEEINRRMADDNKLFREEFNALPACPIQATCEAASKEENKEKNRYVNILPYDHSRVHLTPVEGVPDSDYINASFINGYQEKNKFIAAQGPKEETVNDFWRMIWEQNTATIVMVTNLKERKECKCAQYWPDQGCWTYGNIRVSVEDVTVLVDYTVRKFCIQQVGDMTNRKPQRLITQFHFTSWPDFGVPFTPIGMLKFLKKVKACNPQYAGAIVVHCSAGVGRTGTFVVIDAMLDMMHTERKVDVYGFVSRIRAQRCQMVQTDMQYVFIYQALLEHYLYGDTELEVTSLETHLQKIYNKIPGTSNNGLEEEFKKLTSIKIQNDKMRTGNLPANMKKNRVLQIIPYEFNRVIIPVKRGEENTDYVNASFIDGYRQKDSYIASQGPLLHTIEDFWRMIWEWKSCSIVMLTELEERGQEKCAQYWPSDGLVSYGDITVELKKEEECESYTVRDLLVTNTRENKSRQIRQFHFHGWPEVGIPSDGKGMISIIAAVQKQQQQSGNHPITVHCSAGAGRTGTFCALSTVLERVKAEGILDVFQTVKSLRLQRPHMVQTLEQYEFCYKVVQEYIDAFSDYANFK
UniProt P23467, 1703-1963: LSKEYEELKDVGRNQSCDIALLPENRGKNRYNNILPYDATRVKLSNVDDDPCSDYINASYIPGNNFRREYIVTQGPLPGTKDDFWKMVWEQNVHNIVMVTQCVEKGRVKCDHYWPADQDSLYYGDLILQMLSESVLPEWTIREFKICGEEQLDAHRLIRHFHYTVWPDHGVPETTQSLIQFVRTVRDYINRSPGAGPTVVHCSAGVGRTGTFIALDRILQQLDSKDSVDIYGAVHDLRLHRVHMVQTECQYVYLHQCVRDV
UniProt P10586, 30-1907: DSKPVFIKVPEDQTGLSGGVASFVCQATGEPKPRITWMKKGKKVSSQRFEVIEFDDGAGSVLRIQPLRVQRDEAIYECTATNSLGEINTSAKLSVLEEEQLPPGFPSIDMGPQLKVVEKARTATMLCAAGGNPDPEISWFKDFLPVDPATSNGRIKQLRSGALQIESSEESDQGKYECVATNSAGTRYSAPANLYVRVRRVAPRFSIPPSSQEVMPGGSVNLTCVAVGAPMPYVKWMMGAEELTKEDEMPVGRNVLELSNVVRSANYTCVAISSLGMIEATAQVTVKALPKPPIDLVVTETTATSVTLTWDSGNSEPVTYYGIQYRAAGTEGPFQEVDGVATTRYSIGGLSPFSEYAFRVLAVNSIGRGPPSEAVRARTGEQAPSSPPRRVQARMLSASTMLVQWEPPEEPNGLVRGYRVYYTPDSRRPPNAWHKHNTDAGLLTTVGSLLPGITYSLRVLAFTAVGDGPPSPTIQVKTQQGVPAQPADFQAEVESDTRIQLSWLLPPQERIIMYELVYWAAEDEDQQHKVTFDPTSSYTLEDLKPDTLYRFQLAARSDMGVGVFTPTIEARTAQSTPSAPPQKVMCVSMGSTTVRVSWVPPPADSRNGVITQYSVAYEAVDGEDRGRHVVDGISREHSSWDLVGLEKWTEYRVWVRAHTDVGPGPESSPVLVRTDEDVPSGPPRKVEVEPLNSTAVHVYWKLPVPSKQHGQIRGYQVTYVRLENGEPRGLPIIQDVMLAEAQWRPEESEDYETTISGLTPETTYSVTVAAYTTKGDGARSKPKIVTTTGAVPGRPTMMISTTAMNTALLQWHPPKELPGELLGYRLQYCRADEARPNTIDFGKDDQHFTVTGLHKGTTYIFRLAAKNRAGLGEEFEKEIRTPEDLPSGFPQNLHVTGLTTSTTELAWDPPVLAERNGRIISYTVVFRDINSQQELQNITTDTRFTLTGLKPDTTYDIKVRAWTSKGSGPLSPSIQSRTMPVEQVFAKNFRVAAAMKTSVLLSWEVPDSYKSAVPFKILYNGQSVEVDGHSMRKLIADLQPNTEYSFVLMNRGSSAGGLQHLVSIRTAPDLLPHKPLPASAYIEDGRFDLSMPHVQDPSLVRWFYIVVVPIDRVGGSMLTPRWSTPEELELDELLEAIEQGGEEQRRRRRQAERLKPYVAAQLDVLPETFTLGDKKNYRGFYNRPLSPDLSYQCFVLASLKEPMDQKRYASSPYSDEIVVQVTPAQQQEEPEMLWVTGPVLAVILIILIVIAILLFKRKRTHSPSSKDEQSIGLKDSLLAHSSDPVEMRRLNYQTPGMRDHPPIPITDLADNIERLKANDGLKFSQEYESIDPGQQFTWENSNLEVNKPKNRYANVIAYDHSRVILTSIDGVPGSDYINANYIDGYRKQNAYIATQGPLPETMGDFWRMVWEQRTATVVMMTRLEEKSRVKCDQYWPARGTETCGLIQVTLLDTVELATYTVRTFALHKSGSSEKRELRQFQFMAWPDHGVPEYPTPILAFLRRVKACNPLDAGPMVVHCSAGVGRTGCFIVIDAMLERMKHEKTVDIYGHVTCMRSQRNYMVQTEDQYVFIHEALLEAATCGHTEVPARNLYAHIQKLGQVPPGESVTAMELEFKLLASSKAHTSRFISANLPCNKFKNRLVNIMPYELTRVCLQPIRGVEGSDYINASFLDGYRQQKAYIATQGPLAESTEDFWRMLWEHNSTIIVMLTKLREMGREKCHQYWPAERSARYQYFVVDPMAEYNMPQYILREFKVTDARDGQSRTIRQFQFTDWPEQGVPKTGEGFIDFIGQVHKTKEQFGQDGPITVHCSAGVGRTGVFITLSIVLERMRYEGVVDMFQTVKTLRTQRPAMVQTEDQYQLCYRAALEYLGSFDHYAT
UniProt P08575, 599-1306: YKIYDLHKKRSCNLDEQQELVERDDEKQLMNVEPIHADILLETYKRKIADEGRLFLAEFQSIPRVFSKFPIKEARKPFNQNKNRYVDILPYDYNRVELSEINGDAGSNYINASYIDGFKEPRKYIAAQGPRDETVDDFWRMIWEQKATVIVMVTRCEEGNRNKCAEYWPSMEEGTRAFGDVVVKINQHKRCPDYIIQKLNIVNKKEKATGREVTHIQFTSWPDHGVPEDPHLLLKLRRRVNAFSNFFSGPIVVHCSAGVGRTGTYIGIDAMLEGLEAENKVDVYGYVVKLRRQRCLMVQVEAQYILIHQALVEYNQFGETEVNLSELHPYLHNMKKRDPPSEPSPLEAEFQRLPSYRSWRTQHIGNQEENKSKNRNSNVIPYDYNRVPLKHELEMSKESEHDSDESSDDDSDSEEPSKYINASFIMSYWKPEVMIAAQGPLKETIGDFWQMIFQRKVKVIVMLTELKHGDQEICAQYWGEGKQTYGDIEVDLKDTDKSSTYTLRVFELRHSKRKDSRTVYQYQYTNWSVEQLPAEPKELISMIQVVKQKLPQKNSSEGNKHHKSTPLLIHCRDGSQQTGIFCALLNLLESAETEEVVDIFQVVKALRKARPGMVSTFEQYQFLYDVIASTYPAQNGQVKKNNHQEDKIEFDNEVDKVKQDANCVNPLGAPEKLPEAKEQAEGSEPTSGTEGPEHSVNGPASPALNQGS

Measured: IC50

O=C(Nc1ccc(OCc2ccccc2)c(Cl)c1)C(=O)Nc1ccccc1NC(=O)[C@H](c1ccccc1)S(=O)(=O)O [8k]
> 50 µM: PTPα | PTPβ | LAR | CD45

Reference: article PMC12831972 (2025)
